Data: BindingDB's records for 24076173

Protein sequences, listed by entry. Tags and fused reporters are not part of them. Residues count along the entry.
UniProt P22303, 32-614 limits assumed: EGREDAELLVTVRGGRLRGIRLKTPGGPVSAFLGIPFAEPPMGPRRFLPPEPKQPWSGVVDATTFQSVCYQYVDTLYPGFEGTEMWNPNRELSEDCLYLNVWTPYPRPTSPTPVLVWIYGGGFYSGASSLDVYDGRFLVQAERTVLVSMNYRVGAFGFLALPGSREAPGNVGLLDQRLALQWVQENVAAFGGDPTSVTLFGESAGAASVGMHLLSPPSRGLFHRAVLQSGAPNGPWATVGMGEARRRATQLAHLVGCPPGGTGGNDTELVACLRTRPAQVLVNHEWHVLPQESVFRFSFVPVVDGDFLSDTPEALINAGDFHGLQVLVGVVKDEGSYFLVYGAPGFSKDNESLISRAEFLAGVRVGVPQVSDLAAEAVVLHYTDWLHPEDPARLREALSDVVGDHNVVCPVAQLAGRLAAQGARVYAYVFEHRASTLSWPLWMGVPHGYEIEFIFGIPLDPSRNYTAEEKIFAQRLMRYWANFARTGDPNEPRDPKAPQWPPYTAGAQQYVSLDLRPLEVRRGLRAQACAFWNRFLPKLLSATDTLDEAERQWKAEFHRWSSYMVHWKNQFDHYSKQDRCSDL

Biological target: Acetylcholinesterase (Homo sapiens, UniProt P22303)
Test: Reversible inhibition of human recombinant AChE using acetylthiocholine iodide as substrate measured after 2 hrs by Ellmans method

Structure (SMILES)	IC50
COc1ccc(C(F)(F)F)c[n+]1CCCCCO	131 µM
COc1c(F)ccc[n+]1C	110 µM
